Laboratory results taken from US6841362B1, “Melanoma differentiation associated gene-7 promoter and uses thereof” (The Trustees of Columbia University in the City of New York, priority 2000, dated 2005).

Columns and labels:
Format in all cases: cell-based, human
FL-mda-7 promoter = FL-mda-7 promoter luciferase reporter assay, transient transfection; settings: HO-1 and MeWo cells, 48 hr treatment, relative to uninduced; IFN-β 2000 units/ml, MEZ 10 ng/ml
Experimental: FIGS. 1A-1B. The effect of differentiation inducer drug treatment on full length mda-7 promoter activity. Fold induction of the FL-mda-7 promoter relative to the pGL3-Basic plasmid with or without differentiation inducer drug treatment in HO-1 (FIG. 1A) or MeWo (FIG. 1B) human melanoma cells. Luciferase assays were performed as previously described (Gopalkrishnan et al., 1999). In brief, the promoter-containing plasmids were transiently transfected into the different cell types using Superfect^R (Qiagen) according to the manufacturer's protocol. The cells were treated with differentiation inducers (IFN-β, 2000 units/ml; MEZ, 10 ng/ml; or IFN-β+MEZ, 2000 units/ml+10 ng/ml) for 48 h following transfection and assayed for luciferase activity using the Luc+Assat Kit (Promega). The SV40-p-Galactosidase plasmid was co-transfected with the luciferase constructs and used to normalize for variations in transfection efficiencies between experiments. […]
The presumptive promoter fragment was assayed for promoter activity using a heterologous gene reporter system (pGL3-Basic, luciferase assay system, Promega). […] The transfection efficiency was determined by cotransfection with RSV-β-galactosidase (Tropics β-Gal assay kit) and the relative luciferase activity was computed after correction for variations in transfection efficiencies. […]

mda-7-ARE-3'-UTR = experiment: Luciferase-mda-7-ARE-3'UTR reporter assay; settings: HO-1 cells
Excerpt: FIGS. 3A-3B. Posttranscriptional regulation of Luciferase mRNA as a consequence of mda-7-3′ UTR addition at its 3′-end. The Luciferase expression plasmid having SV40 polyadenylation signal sequence was replaced with the 3′-UTR region (approximately 900 bp) of mda-7. A schematic representation of this chimeric construct is shown above the data. (FIG. 3A) Mda-7 3′-UTR mediated destabilization of luciferase mRNA was computed as fold induction of luciferase enzyme activity, which is seen only when stable luciferase mRNA, is synthesized. Compare the result shown in FIG. 1A of uninduced and IFN-β and MEZ treated samples. The relative activity is very high as shown in FIGS. 1A-1B as the 3′-UTR used in that assay came from SV40 while the 3′-UTR used in this study was replaced with the mda-7 3′-UTR. […]
To examine the posttranscriptional regulation of mda-7 mRNA specifically during terminal differentiation of human melanoma cells, we constructed a Luciferease-mda-7-ARE-3′UTR plasmid under transcriptional control of either the FL-mda-7 promoter (FIG. 3) or the SV40 large T-antigen promoter. […] Based on these observations we conclude that the steady state level of mda-7 mRNA is determined by posttranslational decay of the message, which is apparent in uninduced and in HO-1 cells treated singularly with IFN-β or MEZ.

mda-7 gene = experiment: Nuclear run-on assay of mda-7 transcription; settings: HO-1 cells, 24 h treatment, versus uninduced control
Experimental: (§1) FIGS. 2A-2C. Determination of mda-7 transcription by nuclear run-on, mda-7 mRNA by Northern blotting and RT-PCR and a comparison of the AU-rich sequences found in the 3′-UTR of several mRNAs. (FIG. 2A) Nuclear run-on assays using nuclei isolated from Control or 24 h after treatment with IFN-β, MEZ or IFN-β+MEZ, the same concentrations as indicated in FIG. 1. GAPDH was used as an internal control. In vitro transcription assays were performed as previously described (Jiang et al., 1993). (FIG. 2B) Mda-7 message expression detected by Northern blotting and RT-PCR followed by Southern blotting. Total RNA from control (FIG. 2C) HO-1 cells and cells treated with IFN-β (I), MEZ (M) or IFN-β+MEZ (I+M) were analyzed by Northern blotting or RT-PCR/Southern using radiolabeled mda-7 cDNA as a probe as previously described (Jiang et al., 1993, 1995a; Kang et al., 1998a). GAPDH was used as an internal loading control. (C) Several cytokine genes and proto-oncogenes that contain the AUUUA consensus sequence in their 3′-UTRs. Abbreviations: Hu=human; mda-7=melanoma differentiation associated gene-7 (Jiang et al., 1995a); α-IFN alpha interferon (Goeddel et al., 1981); GM-CSF=granulocyte-monocyte colony stimulating factor (Wong et al., 1985); TNF=tumor necrosis factor (Nedwin et al., 1985); cFos=fos proto-oncogene (van Straaten et al., 1983). (SEQ ID NOS:9-13). […]

mda-7 mRNA = experiment: RT-PCR followed by Southern blotting of mda-7 mRNA; settings: HO-1 cells, compared to IFN-β+MEZ treated samples
Experimental: as §1
Nucleic acid analysed. […]

IFN-β: recombinant human fibroblast interferon
activity of the FL-mda-7 promoter (luciferase) (FL-mda-7 promoter): decreases
luciferase enzyme activity of Luciferase-mda-7-ARE-3'UTR construct (mda-7-ARE-3'-UTR): minimal
rate of mda-7 transcription (mda-7 gene): reduced
mda-7 mRNA by RT-PCR (mda-7 mRNA): lower levels
